Only some compounds are listed: those with a hit (about 2.3% of all), similar ones and a draw of the others.
Nrf2 inh – Nrf2 pathway inhibition; A549 ARE-Fluc reporter, luciferase luminescence, 18-24 h; Potency, µM (highest dose often 46 µM), without a hit: at the top dose activity change, negative = inhibition, usual class: inhibitors; actives 2.1% (n = 360,000); AID 504444; also: potency is read from the fitted curve at half-maximal effect; % is scaled to controls: 0 for no effect and ±100 for the full control effect; nearly all actives have a fitted effect of over 60% in size
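Quantitative HTS in A549 cells stably bearing an antioxidant response element-firefly luciferase construct. Inhibition of Nrf2-driven transcription was scored by luminescence after 18-24 h of compound exposure at 37 °C.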
Mito fusion yeast – blocks mitochondrial division or promotes mitochondrial fusion; S. cerevisiae fusion-defective mutant growth rescue, CellTiterGlo 48 h; actives 0.23% (n = 320,000); AID 485298; Potency, µM (doses to about 46.1 µM), for the others: top-dose growth rescue (activation), most hits filed as activators; also: potency is read from the fitted curve at half-maximal effect; % of control where 0% means no effect; nearly all actives have a fitted effect of over 45% in size
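Growth-rescue viability read-out: after 48 h at the non-permissive 37C in glycerol/ethanol YPEG, yeast mitochondrial fusion mutants are measured by CellTiterGlo luminescence; compounds (23 nl pinned per well) restoring growth score as division inhibitors or fusion activators.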
Nrf2 ARE act – activators of Nrf2 (ARE) signaling; AREc32 ARE-luciferase reporter (MCF7-derived line), luminescence, 24 h; Potency, µM (highest dose often 46.1 µM), without a hit: top-dose activation, most hits filed as activators; actives 0.31% (n = 410,000); AID 624171; also: potency is read from the fitted curve at half-maximal effect; % of control where 0% means no effect; nearly all actives have a fitted effect of over 65% in size
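Nrf2 activation is followed as ARE-luciferase induction in the AREc32 line after one day of compound treatment; luminescence is read with Steady-Glo.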
miR-21 reporter – miR-21 reporter, rising signal; Potency, µM (titrated, usually from 38.3 µM), without a hit: at the highest dose reporter change, positive = more light; AID 2288; 340,000 tested, under 10 active; HeLa miR-21 FLuc reporter, luciferase, 48 h; active = well fitted rising curve with a large enough effect; inconclusive = small, poorly fitted or top-dose-only effect; inactive = no such curve, though single readings can be large or run the other way;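 note: % of control where 0% means no effect; miR-21 action dims this reporter so a rising signal means less miR-21 action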
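Using DMEM plus 10% FBS, HeLa miR-21-FLuc cells are incubated with test compounds (final up to about 40uM) for 48 hours; firefly luciferase signal is then imaged following reagent-mediated lysis.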
A549 viability – kills or reduces viability of A549 cells in Nrf2 counter-screen; A549 ARE-Fluc cells, CellTiter-Fluor viability, 18-24 h; Potency, µM (top dose mostly 46 µM), for the others: at the highest dose activity change, negative = cytotoxicity, usual class: inhibitors; actives 0.16% (n = 390,000); also: potency is read from the fitted curve at half-maximal effect; % is scaled to controls: 0 for no effect and ±100 for the full control effect
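A549 ARE_Fluc cells in 5% FBS OPTI-MEM were exposed to compounds in concentration-response for 18-24 h at 37 deg C. Viability was read by CellTiter-Fluor fluorescence (Ex 405/Em 525) after 30 min, before the luciferase read.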
Active calls of the source: *; ? = inconclusive; . = not tested or not shown; [ ] = dose if it differs, or a comment. Unless noted, calls follow the shape of the dose curve; as a rule, active = well fitted curve in the direction sought with a large enough effect; inconclusive = small, poorly fitted or top-dose-only effect, or another doubt; inactive = no such curve, though single readings can be large; an effect the other way counts as inactive or inconclusive.

Start of the data: the first 5 compounds, ahead of the listing:
| no. | structure | Nrf2 inh | Mito fusion yeast | Nrf2 ARE act |
| --- | --- | --- | --- | --- |
| 1 | COc1ccc2c(c1)CCc1c(C(=O)Nc3c(C)nn(Cc4ccccc4)c3C)noc1-2 | 21µM* | -2% | -1% |
| 2 | O=S1(=O)N=C(Sc2ccc3c(c2)OCCO3)c2ccccc21 | -30% | . | . |
| 3 | Cc1cc(C)c(Cn2cnc(-c3ccc([N+](=O)[O-])cc3)c2)c(C)c1 | 21µM* | 0% | 5% |
| 4 | O=C(Cn1cc(CNC(=O)c2ccccc2)nn1)Nc1cc(C(F)(F)F)ccc1Cl | 8% | . | . |
| 5 | COc1cccc(NC(=O)/C(C#N)=C\c2cn(Cc3ccc(Cl)cc3)c3ccccc23)c1 | ? | . | 0% |

| no. | miR-21 reporter | A549 viability |
| --- | --- | --- |
| 1 | 2% | -6% |
| 2 | . | 0% |
| 3 | -8% | ? |
| 4 | . | 0% |
| 5 | 10% | -21% |

The list itself, previewed entries included:
| no. | structure | Nrf2 inh | Mito fusion yeast | Nrf2 ARE act |
| --- | --- | --- | --- | --- |
| 1 | COc1ccc2c(c1)CCc1c(C(=O)Nc3c(C)nn(Cc4ccccc4)c3C)noc1-2 | 21µM* | -2% | -1% |
| 2 | O=S1(=O)N=C(Sc2ccc3c(c2)OCCO3)c2ccccc21 | -30% | . | . |
| 3 | Cc1cc(C)c(Cn2cnc(-c3ccc([N+](=O)[O-])cc3)c2)c(C)c1 | 21µM* | 0% | 5% |
| 4 | O=C(Cn1cc(CNC(=O)c2ccccc2)nn1)Nc1cc(C(F)(F)F)ccc1Cl | 8% | . | . |
| 5 | COc1cccc(NC(=O)/C(C#N)=C\c2cn(Cc3ccc(Cl)cc3)c3ccccc23)c1 | ? | . | 0% |
| 6 | COc1cccc(NC(=O)/C(C#N)=C/c2c(C)n(Cc3ccccc3)c3ccccc23)c1 | 12µM* | . | 0% |
| 7 | Cc1ccc(NC(=O)COCc2cc(-c3cccs3)on2)cc1Cl | ? | . | 7.1µM* |
| 8 | Fc1ccc(NC(=S)N2CCN(C/C=C/c3ccccc3)CC2)c(F)c1 | 21µM* | -3% | 6% |
| 9 | COc1ccccc1NC(=S)N1CCN(C/C=C/c2ccccc2)CC1 | 15% | 9% | 2% |
| 10 | CCN(CC)S(=O)(=O)c1ccc(C)c(NC(=S)N2CCN(C/C=C/c3ccccc3)CC2)c1 | 12µM* | 2% | 1% |
| 11 | COc1cc(F)c(S(=O)(=O)N2CCCN(S(=O)(=O)c3ccc4c(c3)OCCO4)CC2)c(F)c1 | ? | . | . |
| 12 | Nc1c(C(=O)NCCc2ccccc2)sc2nc(N3CCOCC3)c3c(c12)CCCC3 | ? | 18% | 0% |
| 13 | CN(C(=O)c1sc2nc(N3CCOCC3)c3c(c2c1N)CCCC3)c1ccccc1 | 16µM* | 0% | 1% |
| 14 | CCC(C)(CCN1CCOCC1)N(Cc1cc2ccccc2n(C)c1=O)C(=O)C1CCCCC1 (stereo not drawn) | 7% | . | . |
| 15 | c1coc(-c2nc3ccccc3nc2-c2ccco2)c1 | -30% | 0% | 10µM* |

| no. | miR-21 reporter | A549 viability |
| --- | --- | --- |
| 1 | 2% | -6% |
| 2 | . | 0% |
| 3 | -8% | ? |
| 4 | . | 0% |
| 5 | 10% | -21% |
| 6 | 6% | -19% |
| 7 | -2% | 15% |
| 8 | 11% | -30% |
| 9 | -4% | 0% |
| 10 | 21% | -16% |
| 11 | . | -18% |
| 12 | -6% | 3% |
| 13 | 17% | 1% |
| 14 | . | -15% |
| 15 | -4% | -4% |

More entries
| no. | structure | Nrf2 inh | Mito fusion yeast | Nrf2 ARE act |
| --- | --- | --- | --- | --- |
| 16 | c1coc(-c2cnc3ccccc3n2)c1 | . | . | 4µM* |
| 17 | O=C(c1ccccc1)c1ccc2nc(-c3ccco3)c(-c3ccco3)nc2c1 | 20% | 4% | ? |
| 18 | O=C(CSc1nnc(NC(=O)c2ccc(F)cc2)s1)NCc1ccco1 | ? | -1% | 3% |
| 19 | O=C(CSc1nnc(NC(=O)c2ccccc2)s1)NCc1ccco1 | 10% | 5% | 4.5µM* |
| 20 | Cc1nnc(Cc2ccccc2)c2n[nH]c(C)c12 | . | . | -1% |
| 21 | Cc1nnc(Cc2ccco2)c2n[nH]c(C)c12 | . | . | 11µM* |
| 22 | COc1ccc(-c2noc(CC(=O)Nc3cc(OC)ccc3OC)n2)cc1 | ? | . | 1% |
| 23 | COC(=O)c1nc(NC(=O)c2ccccc2Cl)n[nH]1 | 26µM* | -5% | -1% |
| 24 | COC(=O)c1nc(NC(=O)c2ccc(Br)cc2)n[nH]1 | -11% | 3% | 3% |
| 25 | CC1=C(C#N)C(c2ccccc2)C2=C(N1)c1ccccc1C2=O (stereo not drawn) | 23µM* | 7% | 0% |
| 26 | O=C(NCc1ccccc1)c1c(Cl)nc(Cl)c(Cl)c1Cl | -21% | -31% | 10µM* |
| 27 | O=C(NCc1ccccc1)c1nc(S(=O)(=O)Cc2ccccc2)ncc1Cl | ? | -24% | -4% |
| 28 | CCS(=O)(=O)c1ncc(Cl)c(C(=O)NCc2ccccc2)n1 | 18µM* | . | -6% |
| 29 | CCNC(=O)c1c(NC(=O)c2nc(S(=O)(=O)CC)ncc2Cl)sc2c1CCCC2 | 21µM* | . | 13% |
| 30 | COc1ccc(CNC(=O)c2nc(S(=O)(=O)Cc3ccccc3)ncc2Cl)cc1 | 18µM* | -18% | -4% |

| no. | miR-21 reporter | A549 viability |
| --- | --- | --- |
| 16 | . | . |
| 17 | -27% | ? |
| 18 | -15% | 11% |
| 19 | -27% | -3% |
| 20 | . | . |
| 21 | . | . |
| 22 | 3% | -2% |
| 23 | 4% | -2% |
| 24 | -5% | 8% |
| 25 | 16% | ? |
| 26 | 23% | 1% |
| 27 | ? | ? |
| 28 | ? | ? |
| 29 | ? | 21µM* |
| 30 | ? | ? |

The list goes on:
| no. | structure | Nrf2 inh | Mito fusion yeast | Nrf2 ARE act |
| --- | --- | --- | --- | --- |
| 31 | COc1ccc(NC(=O)CCNS(=O)(=O)c2ccc3c(c2)CCCC(=O)N3)cc1 | 24% | . | -1% |
| 32 | CCN1c2ccccc2-c2nc(SCC(=O)NCc3ccc(C)cc3)ncc2S1(=O)=O | -7% | . | -1% |
| 33 | COc1ccc(C2NC(=O)c3ccccc3N2)cc1COc1ccc(NC(C)=O)cc1 (stereo not drawn) | 9% | . | . |
| 34 | S=C(NCCCc1cnc[nH]1)NCCCN(Cc1ccc(Cl)cc1)c1ccc(-c2ccccc2)cn1 | 0% | . | . |
| 35 | Cc1ccccc1Nc1cc2ccccc2c(=O)[nH]1 | ? | 6% | -1% |
| 36 | O=c1[nH]c(Nc2ccccc2Cl)cc2ccccc12 | -3% | . | 14% |
| 37 | O=Cc1ccc(-c2ccccc2C(=O)O)o1 | -21% | -9% | 0% |
| 38 | O=C(O)c1ccccc1-c1c2cc(I)c(=O)c(I)c-2oc2c(I)c(O)c(I)cc12 | -27% | . | -1% |
| 39 | O=C1OC(Nc2ccc3c(c2)OCO3)c2ccccc21 (stereo not drawn) | ? | -9%[9.22 µM] | 11µM* |
| 40 | CN1CCN(c2nc3c(=O)[nH]c(N)nc3n2C2OC(CO)C(O)C2O)CC1 (stereo not drawn) | ? | . | . |
| 41 | CC(C)c1ccc(NC(=O)CSc2n[nH]c(=O)n2Cc2ccco2)cc1 | 10µM* | -2% | 5% |
| 42 | O=C(CSc1n[nH]c(=O)n1Cc1ccco1)Nc1ccccc1 | 7% | -6% | -1% |
| 43 | Cc1ccc(O)c(-n2nc3ccccc3n2)c1 | 11% | 1% | 4% |
| 44 | Oc1ccccc1-n1nc2ccc3nonc3c2n1 | -1% | 6% | 10µM* |
| 45 | Cc1cc(-c2ccccc2)nc(Oc2ccc(C(C)(C)C)cc2)c1S(C)(=O)=O | -21% | 8.9µM* | 4% |

| no. | miR-21 reporter | A549 viability |
| --- | --- | --- |
| 31 | 1% | 6% |
| 32 | 0% | 12% |
| 33 | . | 1% |
| 34 | . | -20% |
| 35 | -12% | 16µM* |
| 36 | . | -2% |
| 37 | 0% | -1% |
| 38 | . | 9.2µM* |
| 39 | ? | -17% |
| 40 | . | 1% |
| 41 | 16% | -4% |
| 42 | 1% | -2% |
| 43 | -64% | 1% |
| 44 | -20% | 1% |
| 45 | 7% | -13% |

The list goes on.
| no. | structure | Nrf2 inh | Mito fusion yeast | Nrf2 ARE act |
| --- | --- | --- | --- | --- |
| 46 | Cc1ccc(S(=O)(=O)C(C#N)c2nc3ccccc3nc2N2CC(C)OC(C)C2)cc1C (stereo not drawn) | ? | 6% | 2% |
| 47 | Cc1cccc(S(=O)(=O)C(C#N)c2nc3ccccc3nc2N2CC(C)OC(C)C2)c1 (stereo not drawn) | 16µM* | 11% | 0% |
| 48 | COc1ccc(S(=O)(=O)c2c(Nc3ccccc3F)sc(C(=O)c3cccc(OC)c3)c2N)cc1 | . | . | 2% |
| 49 | CCN(CC)S(=O)(=O)c1cc(NC(=O)C(C)N(C)CC(=O)Nc2c(C)cccc2C)ccc1C (stereo not drawn) | 16µM* | 0% | 3% |
| 50 | NCCCn1c(C(=O)c2cc(Cl)c(N)c(Cl)c2)c2ccc([N+](=O)[O-])cc2[n+]1[O-] | 157% | ? | ? |
| 51 | O=C(Nc1cccc(S(=O)(=O)C(F)F)c1)c1ccc(S(=O)(=O)N2CCCCC2)cc1 | 16µM* | 2% | 1% |

| no. | miR-21 reporter | A549 viability |
| --- | --- | --- |
| 46 | -4% | . |
| 47 | -10% | -23% |
| 48 | 23% | -12% |
| 49 | -3% | ? |
| 50 | . | 18µM* |
| 51 | 18% | ? |
